{
  "source": "patent US20050282910A1",
  "about": "“Methods of application of chemical compounds having therapeutic activities in treating cancers” (priority 2003, published 2005)",
  "key": {"K562/adr": {"test_system": "K562/adr", "test": "Reversal of drug resistance by ethanol extracts of Schisandra chinensis fruit, MTT cytotoxicity of anticancer agents", "type": "cell-based, human", "conditions": "by ethanol extracts (50 μg/ml)"}, "[1]": {"test_system": "human leukemia MDR cell line K562/adr", "test": "Reversal of P-glycoprotein-mediated drug resistance by Schisandrin A, Schisandrol A, Schisantherin A, MTT cytotoxicity of anticancer agents", "type": "cell-based"}, "[2]": {"test_system": "human epidermoid carcinoma MDR cell line KBv200"}, "[3]": {"test_system": "human breast cancer MDR cell line MCF7/adr"}, "KBv200": {"test_system": "KBv200", "test": "Reversal of drug resistance by ethanol extracts of Schisandra chinensis fruit, MTT cytotoxicity of anticancer agents", "conditions": "by ethanol extracts (50 μg/ml)"}, "MCF7/adr": {"test_system": "MCF7/adr", "test": "Reversal of drug resistance by ethanol extracts of Schisandra chinensis fruit, MTT cytotoxicity of anticancer agents", "conditions": "by ethanol extracts (50 μg/ml)"}},
  "note": "Like-named read-outs stand apart in the source and are kept apart here.",
  "data": [
    {"compound": "COc1cccc2c1C(=O)c1c(O)c3c(c(O)c1C2=O)C[C@@](O)(C(C)=O)C[C@@H]3O[C@H]1C[C@H](N)[C@H](O)[C@H](C)O1", "note": "[Daunorubicin]", "values": [
      {"measurement": "RF (reversal folds of drug resistance)", "setting": "K562/adr", "result": 10.7},
      {"measurement": "RF (reversal folds of drug resistance)", "setting": "[1]; by Schisandrin A (10 μg/ml)", "result": 71.2},
      {"measurement": "RF (reversal folds of drug resistance)", "setting": "[1]; by Schisantherin A (10 μg/ml)", "result": 18.3},
      {"measurement": "RF (reversal folds of drug resistance)", "setting": "[2]; by Schisandrin A (10 μg/ml)", "result": 10.9},
      {"measurement": "RF (reversal folds of drug resistance)", "setting": "[2]; by Schisantherin A (10 μg/ml)", "result": 7.9},
      {"measurement": "RF (reversal folds of drug resistance)", "setting": "[3]; by Schisandrin A (10 μg/ml)", "result": 10.4},
      {"measurement": "RF (reversal folds of drug resistance)", "setting": "[3]; by Schisantherin A (10 μg/ml)", "result": 13.8},
      {"measurement": "RF (reversal folds of drug resistance)", "setting": "KBv200", "result": 10},
      {"measurement": "RF (reversal folds of drug resistance)", "setting": "MCF7/adr", "result": 10.3}
    ]}
  ]
}
